{"source": "ChEMBL document CHEMBL1155077", "about": "“Kinesin spindle protein (KSP) inhibitors. 9. Discovery of (2S)-4-(2,5-difluorophenyl)-n-[(3R,4S)-3-fluoro-1-methylpiperidin-4-yl]-2-(hydroxymethyl)-N-methyl-2-phenyl-2,5-dihydro-1H-pyrrole-1-carboxamide (MK-0731) for the treatment of taxane-refractory cancer” (J Med Chem, 2008)", "assay": "Inhibition of human KSP", "outline": "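His6-tagged human KSP motor domain (1-367), bacterially expressed, 0.25 nM, with 0.5 µM tubulin as paclitaxel-stabilized microtubules and 1 mM ATP. Buffer: 80 mM K-HEPES pH 6.8, 40 mM KCl, 1 mM EGTA, 2 mM MgCl2, 1 mM DTT, 0.01% BSA, 2.5% DMSO. 11-point 3-fold titration, 2 µM to 34 pM; 3 h at RT. Released phosphate read by quinaldine red/molybdate at 540 nm. Mean of at least 3 experiments.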", "data": [{"smiles": "CN1CC[C@H](N(C)C(=O)N2CC(c3cc(F)ccc3F)=C[C@@]2(CO)c2ccccc2)[C@H](F)C1", "values": [{"measurement": "IC50", "value": 2.2, "unit": "nM"}]}]}
